Tested on: spermatozoa
Type: cell-based

O=C(O)C(OC(C(=O)O)c1ccccc1)c1ccccc1 (stereo not shown) [H2 SO4 -modified Mandelic Acid, 2,2'-diphenyl-2,2'-oxy-di-acetic acid] was tested, and the “cytotoxic activity towards spermatozoa” value was “no cytotoxic activity”.
